Publication PMC4741518, “Adaptive Remodeling of the Bacterial Proteome by Specific Ribosomal Modification Regulates Pseudomonas Infection and Niche Colonisation” (PLoS Genetics, 2016)

Test system: Nc1ncnc2c1ncn2[C@@H]1O[C@H](COP(=O)(O)OP(=O)(O)OP(=O)(O)O)[C@@H](O)[C@H]1O
Assay: purified protein
Conditions: RimK alone, no RpsF, no glutamate, 2 mM MgCl2, 10 mM KCl, pH 8.0, Hill equation fit

RimKPf (SBW25 RimK) (Pseudomonas [fluorescens] SBW25)
Km: 0.37 ± 0.13 mM
